The list shows a part of the results, in another mix than the full data. Active and inactive are the calls of the source.

The chains behind the UniProt entries cited, without tags or fusion partners.
UniProt P09923, whole entry: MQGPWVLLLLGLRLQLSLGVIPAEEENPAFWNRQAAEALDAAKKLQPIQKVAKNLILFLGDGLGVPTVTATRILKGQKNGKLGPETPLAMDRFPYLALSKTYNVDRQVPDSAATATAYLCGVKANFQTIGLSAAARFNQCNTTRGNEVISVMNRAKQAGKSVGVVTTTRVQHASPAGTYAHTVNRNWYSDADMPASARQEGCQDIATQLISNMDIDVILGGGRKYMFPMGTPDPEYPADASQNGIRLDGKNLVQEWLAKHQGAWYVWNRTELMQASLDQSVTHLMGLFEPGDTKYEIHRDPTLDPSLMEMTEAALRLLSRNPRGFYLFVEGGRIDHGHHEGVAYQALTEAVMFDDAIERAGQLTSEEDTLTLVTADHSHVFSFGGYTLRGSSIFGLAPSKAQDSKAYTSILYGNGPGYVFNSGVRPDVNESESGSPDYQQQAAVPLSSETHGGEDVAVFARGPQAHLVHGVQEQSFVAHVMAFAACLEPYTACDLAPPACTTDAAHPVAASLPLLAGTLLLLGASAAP

For the assay, the target named is Intestinal-type alkaline phosphatase (Homo sapiens) (UniProt P09923). Nature of the assay: human IAP activators, primary screen, biochemical, luminescence, uHTS (AID 2524). The settings on record: purified human IAP, CDP-Star luminescence, 30 min; at 10 µM; hits give high values; 1 = vehicle-only enzyme, 0 = enzyme-free background.
Take `CP(=O)(Oc1ccccc1)OC(c1ccccc1)C(F)(F)F` (stereo not drawn): the activation factor is inactive: 0.968.

`CP(=O)(Nc1ccccn1)Oc1ccc(Cl)cc1` (stereo not drawn): the activation factor was inactive: 1.13.

In the case of `O=[N+]([O-])c1cc([N+](=O)[O-])c(O)c([N+](=O)[O-])c1.c1ccc(Oc2ccncc2)cc1`, the activation factor is inactive: 1.08.

Turning to `CCOC(=O)c1ccc(NP(C)(=O)Oc2ccc(OC)cc2)cc1` (stereo not drawn), the activation factor was inactive: 1.08.

With `CCOP(C)(=S)SCC(=O)NC(C)C(=O)O` (stereo not drawn), the activation factor is inactive: 1.09.

Consider `O=[N+]([O-])c1cc([N+](=O)[O-])c(-n2nnc3ccccc32)c([N+](=O)[O-])c1`, for which the activation factor is inactive: 0.934.

`Cc1nc2ccc3ccccc3c2s1.O=[N+]([O-])c1cc([N+](=O)[O-])c(O)c([N+](=O)[O-])c1`: the activation factor was inactive: 0.992.

Turning to `O=[N+]([O-])c1cc([N+](=O)[O-])c(-c2cnn(-c3ccccc3)c2)c([N+](=O)[O-])c1`, the activation factor was inactive: 0.919.

`O=[N+]([O-])c1cc([N+](=O)[O-])c(Nc2nnnn2CCO)c([N+](=O)[O-])c1`: the activation factor is inactive: 0.77.

Take `CC1=C2N=C(C=C3N=C(C(C)=C4[N-][C@@](C)([C@@H]5N=C1[C@](C)(CCC(=O)NC[C@@H](C)OP(=O)([O-])O[C@H]1[C@@H](O)[C@@H](n6cnc7cc(C)c(C)cc76)O[C@@H]1CO)[C@H]5CC(N)=O)[C@@](C)(CC(N)=O)[C@@H]4CCC(N)=O)[C@@](C)(CC(N)=O)[C@@H]3CCC(N)=O)C(C)(C)[C@@H]2CCC(N)=O.[C-]#N.[Co+3]`: the activation factor was inactive: 0.798.

Consider `CCOC(=O)C(CC)C1=NC(C)(C)Cc2ccccc21.O=[N+]([O-])c1cc([N+](=O)[O-])c(O)c([N+](=O)[O-])c1` (stereo not drawn), for which the activation factor was inactive: 0.902.

Regarding `CP(=O)(Nc1ccc(SC(F)(F)F)cc1)Oc1ccccc1` (stereo not drawn), the activation factor is inactive: 0.866.

On to `CCCOc1ccc(NP(C)(=O)Oc2ccc(Cl)cc2)cc1` (stereo not drawn), for which the activation factor was inactive: 0.982.

For `CN1CCCCC1COC(=O)C1(O)c2ccccc2CCc2ccccc21` (stereo not drawn), the activation factor is inactive: 1.7.

Take `COc1ccccc1OP(C)(=O)Nc1c(C)cccc1C` (stereo not drawn): the activation factor is inactive: 1.03.

As for `O=C(O)c1cccc(Nc2c([N+](=O)[O-])cc([N+](=O)[O-])cc2[N+](=O)[O-])c1`, the activation factor was inactive: 0.847.

On to `CC1=NCCc2c1[nH]c1ccccc21.O=[N+]([O-])c1cc([N+](=O)[O-])c(O)c([N+](=O)[O-])c1`, for which the activation factor is inactive: 0.869.

For `CCOC(=O)c1ccc(NP(C)(=O)Oc2cc(C)cc(C)c2)cc1` (stereo not drawn), the activation factor is inactive: 0.96.

Regarding `Cc1cc(C)cc(OP(C)(=O)Nc2ccc(C)cc2C)c1` (stereo not drawn), the activation factor was inactive: 1.09.

For `COc1ccccc1OP(C)(=O)Nc1cccc(Br)c1` (stereo not drawn), the activation factor is inactive: 0.879.

As for `Cc1ccc(C)c(NP(C)(=O)Oc2ccccc2)c1` (stereo not drawn), the activation factor was inactive: 1.07.

As to `CP(=O)(Nc1cccc(Br)c1)Oc1ccccc1` (stereo not drawn), the activation factor was inactive: 0.897.

`Cc1cc(C)cc(OP(C)(=O)Nc2ccccn2)c1` (stereo not drawn): the activation factor was inactive: 0.927.

The record behind these values is PubChem BioAssay AID2524 (Sanford-Burnham Center for Chemical Genomics, 2010).
